Experiments:
[1] = Selectivity ratio for recombinant his-tagged methicillin-resistant Staphylococcus aureus pyruvate kinase over recombinant his-tagged human pyruvate kinase M2
[2] = Selectivity ratio for recombinant his-tagged methicillin-resistant Staphylococcus aureus pyruvate kinase over recombinant his-tagged human pyruvate kinase M1
[3] = Selectivity ratio for recombinant his-tagged methicillin-resistant Staphylococcus aureus pyruvate kinase over recombinant his-tagged human pyruvate kinase R
[4] = Selectivity ratio for recombinant his-tagged methicillin-resistant Staphylococcus aureus pyruvate kinase over recombinant his-tagged human pyruvate kinase L

Measured: Selectivity ratio

O=C1NC[C@@H](c2c[nH]c3cc(Br)ccc23)N[C@H]1c1c[nH]c2cc(Br)ccc12 (relative stereo) [CIS-3,4-DIHYDROHAMACANTHIN B]
166: [1] | [2] | [3] | [4]
